{
  "sequences": {"note": "By UniProt entry, the sequences of proteins in these tests, tags left out. Where a name states a change or a piece, a line headed by the entry shows the natural chain unless it says otherwise.", "UniProt P10275": "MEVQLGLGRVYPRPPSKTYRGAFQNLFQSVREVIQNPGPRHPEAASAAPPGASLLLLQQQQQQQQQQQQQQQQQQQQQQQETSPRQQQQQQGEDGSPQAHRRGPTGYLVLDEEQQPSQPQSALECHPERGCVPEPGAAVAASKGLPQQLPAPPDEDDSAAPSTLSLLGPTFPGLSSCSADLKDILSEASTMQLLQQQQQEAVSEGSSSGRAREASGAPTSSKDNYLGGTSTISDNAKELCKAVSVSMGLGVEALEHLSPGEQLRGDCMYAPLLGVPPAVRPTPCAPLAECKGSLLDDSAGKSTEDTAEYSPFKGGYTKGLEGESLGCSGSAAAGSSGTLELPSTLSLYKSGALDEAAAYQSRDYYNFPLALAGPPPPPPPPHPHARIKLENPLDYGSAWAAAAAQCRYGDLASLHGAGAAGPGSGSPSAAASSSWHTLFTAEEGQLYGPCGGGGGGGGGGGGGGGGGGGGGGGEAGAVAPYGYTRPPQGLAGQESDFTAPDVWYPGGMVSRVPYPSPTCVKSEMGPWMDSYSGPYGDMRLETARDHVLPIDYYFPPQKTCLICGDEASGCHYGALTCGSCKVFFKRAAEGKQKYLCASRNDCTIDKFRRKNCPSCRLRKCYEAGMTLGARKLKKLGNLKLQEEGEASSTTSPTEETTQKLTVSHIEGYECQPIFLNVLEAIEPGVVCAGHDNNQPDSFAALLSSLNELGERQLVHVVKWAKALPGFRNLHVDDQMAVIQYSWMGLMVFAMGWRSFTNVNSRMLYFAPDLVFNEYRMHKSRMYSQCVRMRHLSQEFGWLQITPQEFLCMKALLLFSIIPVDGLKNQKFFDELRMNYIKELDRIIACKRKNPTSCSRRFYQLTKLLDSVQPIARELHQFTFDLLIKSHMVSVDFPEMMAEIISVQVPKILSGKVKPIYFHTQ"},
  "source": "ChEMBL document CHEMBL1944520",
  "about": "“Discovery of 3-aryloxy-lactam analogs as potent androgen receptor full antagonists for treating castration resistant prostate cancer” (Bioorg Med Chem Lett, 2012)",
  "biological_target": "Androgen receptor (Homo sapiens, UniProt P10275)",
  "assay": "Agonist activity at androgen receptor expressed in human LNAR cells as induction of luciferase activity by spectrophotometry relative to untreated control; also: test concentration or dose not given here",
  "type": "functional, cell-based",
  "data": [
    {"smiles": "CNC(=O)c1ccc(N2C(=S)N(c3ccc(C#N)c(C(F)(F)F)c3)C(=O)C23CCC3)cc1F", "values": [
      {"measurement": "fold change (FC)", "value": 0.876}
    ]}
  ]
}
